Laboratory results: ChEMBL document CHEMBL1128860, “5-O-Carboxymethyl piperazide derivatives of serotonin: a new class of potent and selective 5-HT1D receptor agonists” (Bioorg Med Chem Lett, 1995)

Chains of the proteins cited; added tags and fusions are not shown.
UniProt P08908, whole entry: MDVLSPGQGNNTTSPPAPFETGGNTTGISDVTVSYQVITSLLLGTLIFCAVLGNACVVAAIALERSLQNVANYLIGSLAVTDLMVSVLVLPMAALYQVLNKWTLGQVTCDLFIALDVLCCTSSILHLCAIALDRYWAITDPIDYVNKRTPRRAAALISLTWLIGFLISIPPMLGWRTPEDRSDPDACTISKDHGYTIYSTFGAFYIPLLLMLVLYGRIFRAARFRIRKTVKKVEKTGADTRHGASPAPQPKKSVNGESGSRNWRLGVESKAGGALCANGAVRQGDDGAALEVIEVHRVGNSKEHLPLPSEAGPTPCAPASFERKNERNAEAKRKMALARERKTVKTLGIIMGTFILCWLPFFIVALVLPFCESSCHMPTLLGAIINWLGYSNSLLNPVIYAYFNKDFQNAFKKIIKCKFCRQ

Experiments:
[1] = target: T1, 5-hydroxytryptamine receptor 1A (Homo sapiens, UniProt P08908); assay: Compound was tested for its ability to inhibit forskolin-stimulated activity of adenylate cyclase coupled to human 5-HT 1A receptor in HeLa cells; value ranges from 50-550; assay type: functional, cell-based
[2] = target: T1, 5-hydroxytryptamine receptor 1A; assay: Binding affinity towards cloned human 5-hydroxy tryptamine 1A (5-HT1A) receptor was determined

## NCCc1c[nH]c2ccc(OCC(=O)N3CCN(c4ccccc4)CC3)cc12
[1]
  EC50: 50 nM
[2]
  Ki: 11.4 nM
